Measurements from patent publication US20250144067A1, “PERSONALIZED STARVATION THERAPY FOR CANCER” (Faeth Therapeutics, Inc., priority 2021, published 2025).
Counter-ions that a name gives are not always drawn.

Test system: NCI-H292 lung cancer cells
Assay: FDA drug screening, complete media vs cholesterol-free media with simvastatin (TABLE 2)
Settings: not given

| Compound | Complete Media |
| --- | --- |
| O=C(O)c1ccccc1 [Benzoic acid] | 1.168 |
| Cc1nc2n(c(=O)c1CCN1CCC(c3noc4cc(F)ccc34)CC1)CCCC2 [Risperidone] | 1.151 |
| Amlodipine (besylate) | 0.999 |

Same assay, conditions: NCI-H292 cells, FDA drug library screen, cholesterol-free media with simvastatin 0.04 μM

| Compound | Cholesterol-free media + simvastatin (0.04 μM) |
| --- | --- |
| CSc1nc2cc(Cl)c(Oc3cccc(Cl)c3Cl)cc2[nH]1 [Triclabendazole] | 0.945 |

Same assay, conditions: NCI-H292 cells, FDA drug library screen, complete media

| Compound | Complete Media |
| --- | --- |
| CC(C)NCC(O)COc1ccc(COCCOC(C)C)cc1.CC(C)NCC(O)COc1ccc(COCCOC(C)C)cc1.O=C(O)/C=C/C(=O)O (racemic) [(±)-Bisoprolol (hemifumarate)] | 1.154 |
| C[C@H]1O[C@H](O[C@H]2[C@H](O)[C@@H](O)[C@@H](O[C@H]3[C@H](O)[C@@H](O)C(O)O[C@@H]3CO)O[C@@H]2CO)[C@H](O)[C@@H](O)[C@@H]1N[C@H]1C=C(CO)[C@@H](O)[C@H](O)[C@H]1O (stereo partly shown) [Acarbose] | 1.153 |
| NCCCC(O)(P(=O)(O)O)P(=O)(O)O [Alendronate (sodium hydrate)] | 1.169 |
| C=CCc1ccccc1OCC(O)CNC(C)C (stereo not shown) [Alprenolol (hydrochloride)] | 1.153 |
| CC(C)C[C@H](NC(=O)[C@@H](O)[C@H](N)Cc1ccccc1)C(=O)O [Bestatin (hydrochloride)] | 1.151 |
| COC(=O)c1cc(OC)c2c(c1-c1c(C(=O)OC)cc(OC)c3c1OCO3)OCO2 [Bifendate] | 1.169 |
| Cn1c(=O)c2[nH]cnc2n(C)c1=O [Choline theophyllinate] | 1.171 |
| CC(=O)OCC(=O)[C@@]1(OC(C)=O)[C@@H](C)C[C@H]2[C@@H]3C[C@H](F)C4=CC(=O)C=C[C@]4(C)[C@@]3(F)[C@@H](O)C[C@@]21C [Diflorasone] | 1.174 |
| COc1ccc(-c2cc(=O)c3c(O)cc(O[C@@H]4O[C@H](CO[C@@H]5O[C@@H](C)[C@H](O)[C@@H](O)[C@H]5O)[C@@H](O)[C@H](O)[C@H]4O)cc3o2)cc1O [Diosmin] | 1.15 |
| OCCOCCN1CCN(C(c2ccccc2)c2ccc(Cl)cc2)CC1 (stereo not shown) [Hydroxyzine (dihydrochloride)] | 1.173 |
| C[C@H]1O[C@H](OC2[C@@H](O)[C@@H](O)C(O)[C@H](O)[C@H]2O)[C@@H](N)C[C@@H]1N=C(N)C(=O)O.Cl.O (stereo partly shown) [Kasugamycin (hydrochloride hydrate)] | 1.153 |
| CC1(C)OC[C@@H](COC(=O)CCc2ccc(OC[C@@H](O)CNCCNC(=O)N3CCOCC3)cc2)O1 [Landiolol (hydrochloride)] | 1.169 |
| C[C@H]1Oc2cc(cnc2N)-c2c(nn(C)c2C#N)CN(C)C(=O)c2ccc(F)cc21 [Lorlatinib] | 1.15 |
| CCOc1ccc2ccccc2c1C(=O)N[C@@H]1C(=O)N2[C@@H]1SC(C)(C)[C@@H]2C(=O)O [Nafcillin (sodium monohydrate)] | 1.174 |
| CS(=O)(=O)Nc1ccc([N+](=O)[O-])cc1Oc1ccccc1 [Nimesulide] | 1.153 |
| N#Cc1ccc([C@H]2CCc3cncn32)c(F)c1 [Osilodrostat] | 1.152 |
| Cc1oc(=O)oc1CN1CCN(c2cc3c(cc2F)c(=O)c(C(=O)O)c2n3C(C)S2)CC1 (stereo not shown) [Prulifloxacin] | 1.175 |
| CCCN1CCCC[C@H]1C(=O)Nc1c(C)cccc1C.CS(=O)(=O)O [Ropivacaine (mesylate)] | 1.151 |
| CNC[C@H](O)[C@@H](O)[C@H](O)[C@H](O)CO.O=C(O)c1ccc2nc(-c3cc(Cl)cc(Cl)c3)oc2c1 [Tafamidis meglumine] | 1.151 |
| O=C(O)Cc1cc(I)c(Oc2ccc(O)c(I)c2)c(I)c1 [Tiratricol] | 1.145 |

Same assay, conditions: NCI-H292 cells, FDA drug library screen, complete media; quantity measured not stated in table head

| Compound | Complete Media |
| --- | --- |
| CCN1CCN(C(=O)N[C@@H](C(=O)N[C@@H]2C(=O)N3[C@@H]2SC(C)(C)[C@@H]3C(=O)[O-])c2ccccc2)C(=O)C1=O.[Na+] [Piperacillin (sodium)] | 1.171 |

Same assay, conditions: NCI-H292 cells, FDA library drug in complete media

| Compound | Complete Media |
| --- | --- |
| N[C@H]1C(O)O[C@H](CO)[C@@H](O)[C@@H]1O (stereo partly shown) [Glucosamine] | 1.146 |
| CC(C)[N+]1(C)[C@@H]2CC[C@H]1CC(OC(=O)C(CO)c1ccccc1)C2.[Br-] (stereo partly shown) [Ipratropium (bromide)] | 1.146 |
| Nc1ccn([C@@H]2CS[C@H](CO)O2)c(=O)n1 [Lamivudine] | 1.171 |
| Nc1cc(N2CCCCC2)nc(N)[n+]1[O-] [Minoxidil] | 1.166 |
| NC(=O)N/N=C/c1ccc([N+](=O)[O-])o1 [Nitrofurazone] | 1.151 |
| C[C@H](CCC(=O)NCCS(=O)(=O)O)[C@H]1CC[C@H]2[C@@H]3CC[C@@H]4C[C@H](O)CC[C@]4(C)[C@H]3C[C@H](O)[C@]12C [Taurodeoxycholic acid (sodium hydrate)] | 1.168 |

Same assay, conditions: NCI-H292 cells, cholesterol-free media with simvastatin 0.04 μM; FDA drug library screen (TABLE 2)

| Compound | Cholesterol-free media + simvastatin (0.04 μM) |
| --- | --- |
| CCN1CCN(c2cc(-c3ccc(F)cc3)c3c(n2)CCCCCC3)CC1 [Blonanserin] | 0.9451 |

Same assay, conditions: NCI-H292 cells, complete media; FDA drug library screen (TABLE 2)

| Compound | Complete Media |
| --- | --- |
| O=C(O)c1cc(/N=N/c2ccc(O)c(C(=O)O)c2)ccc1O [Olsalazine (Disodium)] | 1.149 |
| CC1=C(CC(=O)O)c2cc(F)ccc2/C1=C\c1ccc([S+](C)[O-])cc1 (stereo not shown) [Sulindac] | 1.173 |
| C[C@]12C=CC(=O)C=C1CC[C@H]1[C@@H]3C[C@@H](O)[C@](O)(C(=O)CO)[C@@]3(C)C[C@H](O)[C@@]12F [Triamcinolone] | 1.165 |

Same assay, conditions: NCI-H292 cells, complete media; cell growth value in FDA drug screen

| Compound | Complete Media |
| --- | --- |
| COC(=O)C1=C(C)NC(C)=C(C(=O)OC2CCCN(Cc3ccccc3)C2)C1c1cccc([N+](=O)[O-])c1 (stereo not shown) [Benidipine (hydrochloride)] | 1.165 |
| NS(=O)(=O)c1cc2c(cc1Cl)N=C(CSCc1ccccc1)NS2(=O)=O [Benzthiazide] | 1.151 |
| C(=C\c1ccccc1)/CN1CCN(C(c2ccccc2)c2ccccc2)CC1 [Cinnarizine] | 1.168 |
| CCCCC1C(=O)N(c2ccccc2)N(c2ccccc2)C1=O [Phenylbutazone] | 1.149 |
| CC(S)C(=O)NCC(=O)O (stereo not shown) [Tiopronin] | 1.151 |
| Clemastine (fumarate) | 0.9989 |

Same assay, conditions: NCI-H292 cells, drug in complete media

| Compound | Complete Media |
| --- | --- |
| CC(C)(O/N=C(\C(=O)N[C@@H]1C(=O)N2C(C(=O)[O-])=C(C[n+]3ccccc3)CS[C@H]12)c1csc(N)n1)C(=O)O [Ceftazidime] | 1.153 |
| [H]/N=C(\N/C(=N/[H])Nc1ccc(Cl)cc1)NC(C)C [Proguanil] | 1.172 |
| CN1C(=O)C[C@@H](C(=O)N[C@@H](Cc2c[nH]cn2)C(=O)N2CCC[C@H]2C(N)=O)NC1=O [Taltirelin] | 1.148 |

Test system: NCI-H292 lung cancer cells
Assay: FDA drug screening, complete media vs cholesterol-free media without statin (TABLE 1)
Settings: not given

| Compound | Complete |
| --- | --- |
| O=C(OCC(O)CO)c1ccccc1Nc1ccnc2cc(Cl)ccc12 (stereo not shown) [Glafenine] | 1.17 |

Same assay, conditions: NCI-H292 cells in complete media

| Compound | Complete |
| --- | --- |
| CC(C)NCC(O)c1ccc(O)c(O)c1 (stereo not shown) [Isoprenaline (hydrochloride)] | 1.173 |

Same assay, conditions: NCI-H292 cells, FDA drug library screen, cholesterol-free media without statin

| Compound | Cholesterol-free |
| --- | --- |
| Nc1ncnc2c1ncn2[C@@H]1O[C@H](CO)[C@@H](O)[C@H]1O [Adenosine] | 0.9448 |

Same assay, conditions: NCI-H292 cells, FDA drug library screen, complete media

| Compound | Complete |
| --- | --- |
| CC1CNc2c(cccc2S(=O)(=O)N[C@@H](CCCNC(=N)N)C(=O)N2CC[C@@H](C)C[C@@H]2C(=O)O)C1 (stereo partly shown) [Argatroban (monohydrate)] | 1.155 |
| CCOC(CN1CCN(CC(C)C(=O)c2ccccc2)CC1)c1ccccc1 (stereo not shown) [Eprazinone (dihydrochloride)] | 1.172 |
| Cc1c(C(=O)Nc2ccc(S(C)(=O)=O)cc2)cn(CCO)c1-c1ccccc1C(F)(F)F [Esaxerenone] | 1.152 |
| CC(=O)[C@@]1(O)CC[C@H]2[C@@H]3C[C@H](C)C4=CC(=O)C=C[C@]4(C)[C@@]3(F)[C@@H](O)C[C@@]21C [Fluorometholone] | 1.165 |

Same assay, conditions: NCI-H292 cells, cholesterol-free media without statin

| Compound | Cholesterol-free |
| --- | --- |
| CCOc1ccc(Cc2cc([C@@H]3O[C@H](CO)[C@@H](O)[C@H](O)[C@H]3O)ccc2Cl)cc1 | 0.9446 |

Same assay, conditions: NCI-H292 cells, cholesterol-free media without statin, FDA drug library screen

| Compound | Cholesterol-free |
| --- | --- |
| COc1cc(C(C)=O)ccc1OCCCN1CCC(c2noc3cc(F)ccc23)CC1 [Iloperidone] | 0.9455 |

Same assay, conditions: NCI-H292 cells, complete media

| Compound | Complete |
| --- | --- |
| Cn1c(=O)c2c(ncn2CC(=O)O)n(C)c1=O [Acefylline] | 1.149 |
| CC(C)NCC(O)COc1ccc(CC(N)=O)cc1 (stereo not shown) [Atenolol] | 1.168 |
| CCOCCn1c(C2CCN(CCc3ccc(C(C)(C)C(=O)O)cc3)CC2)nc2ccccc21 [Bilastine] | 1.166 |
| O=C1CCc2cc(OCCCCc3nnnn3C3CCCCC3)ccc2N1 [Cilostazol] | 1.174 |
| N[C@@H]1CONC1=O [D-Cycloserine] | 1.146 |
| CC1=NN(c2ccc(C)c(C)c2)C(=O)/C1=N\Nc1cccc(-c2cccc(C(=O)O)c2)c1O [Eltrombopag] | 1.17 |
| COc1cc2c(cc1OC)CC(=O)N(CCCN(C)C[C@H]1Cc3cc(OC)c(OC)cc31)CC2 [Ivabradine (hydrochloride)] | 1.149 |

Same assay, conditions: NCI-H292 cells, complete media, FDA drug library screen

| Compound | Complete |
| --- | --- |
| Cc1ncc(COP(=O)(O)O)c(C)c1O [4-Deoxypyridoxine 5′-phosphate] | 1.15 |
| CCN1CCN(C(=O)N[C@@H](C(=O)N[C@@H]2C(=O)N3C(C(=O)O)=C(CSc4nnnn4C)CS[C@H]23)c2ccc(O)cc2)C(=O)C1=O [Cefoperazone (sodium salt)] | 1.174 |
| Oc1c(I)cc(Cl)c2cccnc12 [Clioquinol] | 1.175 |
| O=C(O)Cc1ccccc1Nc1c(Cl)cccc1Cl [Diclofenac (diethylamine)] | 1.145 |
| COc1ccc2[n-]c([S+]([O-])Cc3ncc(C)c(OC)c3C)nc2c1.COc1ccc2[n-]c([S+]([O-])Cc3ncc(C)c(OC)c3C)nc2c1.[Mg+2] (stereo not shown) [Esomeprazole magnesium] | 1.175 |
| O=C1OCCN1/N=C/c1ccc([N+](=O)[O-])o1 [Furazolidone] | 1.15 |
| CCn1c(=O)c2c(nc(/C=C/c3ccc(OC)c(OC)c3)n2C)n(CC)c1=O [Istradefylline] | 1.167 |
